## Ab-95 light chain CDR variants: yeast mating affinities

Target: peptide PDVDLGDISGINAS, taken from heptad repeat 2 (HR2) of SARS-CoV-2 spike.

The variants keep the heavy chain, the linker and the frameworks of Ab-95 (scFv order VH, a (GGGGS)3 linker, VL).
VH: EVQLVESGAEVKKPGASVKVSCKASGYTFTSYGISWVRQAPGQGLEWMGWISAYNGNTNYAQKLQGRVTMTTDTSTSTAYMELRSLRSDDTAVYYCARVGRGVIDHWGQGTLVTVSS
VL: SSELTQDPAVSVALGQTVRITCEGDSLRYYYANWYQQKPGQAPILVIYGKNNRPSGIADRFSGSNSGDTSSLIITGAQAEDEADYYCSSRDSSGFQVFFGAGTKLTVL

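The starting antibody came from a phage panning campaign against this peptide. In library AAYL52, one, two or three CDR residues were substituted; doubles and triples were drawn at random. Affinity was read by AlphaSeq, a pooled yeast mating assay with surface-displayed partners. After mating in shaken culture at 30 °C for 16 h, diploids were selected and their barcode pairs sequenced. Read counts were normalised to the haploid input and turned into Kd by a linear fit to BCL2-family pairs of known affinity, for each replicate. The assay was run in three technical replicates.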

Positions count from residue 1 of the parent VL; D25K puts K in place of D. This list gathers variants with a substitution at R90 (VL, numbered from residue 1). Values are apparent Kd, the geometric mean of the replicates that gave a signal; lower means stronger binding. "not detected" marks a missing value. The strain was present, yet no cells mated with the target were sequenced in any replicate, which points to weak or no binding. As a blank, each scFv also met three strains without target: over library AAYL52, 28% of these pairings were detected, typically at 8.2 µM and seldom below 800 nM. Parent in this assay: reference entry 200 nM, copy in this library 180 nM.

changes	Kd	detected
D25K L27D R90W	not detected	0/3
R90G F95P	1.7 µM	3/3
R90V G94W	3.3 µM	1/3
R90F S93Q Q96S	not detected	0/3
E23I P54W R90N	2.6 µM	3/3
G24S R53V R90I	140 µM	2/3
R28D Y30A R90H	17 nM	3/3
R28A R53P R90P	not detected	0/3
K50S S88H R90P	48 µM	1/3
K50T R90I F95P	100 µM	1/3
G24Q L27A R90D	not detected	0/3
S26L S55W R90L	3.6 µM	2/3
S26N S88F R90P	5.2 µM	2/3
K50E N51S R90N	210 µM	1/3
R28M N51A R90I	2.9 µM	1/3
S88E R90P Q96A	370 nM	3/3
R53F R90Q	not detected	0/3
N51I R90H F98T	not detected	0/3
R28F R90T	7.3 µM	1/3
Y29T R90I F98L	330 nM	3/3
R90N F98P	1.8 µM	1/3
Y31P N51A R90K	480 nM	3/3
S55T R90I	1.4 µM	3/3
N52H S89L R90L	3.5 µM	3/3
G24Y R28P R90M	3.8 µM	2/3
S26T R90F S92I	12 µM	2/3
K50S S89I R90K	1.9 µM	3/3
R90N D91E F98M	130 nM	3/3
P54F R90Q	980 nM	2/3
D25N R90I Q96Y	2.4 µM	1/3
D25W S88F R90A	150 nM	3/3
R53C R90G F98T	9.9 µM	2/3
K50A R90F D91L	3.9 µM	2/3
E23L G24W R90H	not detected	0/3
E23R G24I R90L	2.9 µM	3/3
G24H L27W R90F	5.8 µM	1/3
R90G S92G V97N	5.0 µM	3/3
Y29W G49K R90F	not detected	0/3
R28E R90E S93A	not detected	0/3
N33Y G49V R90N	20 µM	1/3
Y31K R90V D91W	1.1 µM	3/3
D25E P54R R90Y	14 µM	3/3
Y30H N33P R90E	11 µM	1/3
G49S R90W V97L	25 µM	1/3
S26V S55Q R90M	8.1 µM	1/3
N33V R90V F98H	18 µM	1/3
A32P S88A R90P	13 nM	3/3
A32P R90K	260 nM	3/3
S26I Y31T R90S	24 µM	1/3
R28W R90C G94H	36 µM	1/3
G49Q R90N F95P	19 µM	1/3
Y30P N52M R90N	11 µM	3/3
G49K R90V D91C	not detected	0/3
G24M P54W R90V	5.9 µM	2/3
Y30N Y31V R90E	1.1 µM	2/3

Repeated from above, the 9 best binders with a signal in all replicates:

changes	Kd	detected
A32P S88A R90P	13 nM	3/3
R28D Y30A R90H	17 nM	3/3
R90N D91E F98M	130 nM	3/3
D25W S88F R90A	150 nM	3/3
A32P R90K	260 nM	3/3
Y29T R90I F98L	330 nM	3/3
S88E R90P Q96A	370 nM	3/3
Y31P N51A R90K	480 nM	3/3
Y31K R90V D91W	1.1 µM	3/3

Source: Engelhart et al. 2022 (doi:10.1038/s41597-022-01779-4), MIT Lincoln Laboratory and A-Alpha Bio; data file from the FLAb repository.